Literature values in article PMC1769465, “Toxicity Assays in Nanodrops Combining Bioassay and Morphometric Endpoints” (PLoS ONE, 2007).

Tested on: HeLa cells
Conditions: read-out: LC50; HeLa cells engineered with the same constructs; cited from earlier work

For Sodium arsenate, the CC50 is given as 5 µM.
